Data taken from ChEMBL document CHEMBL1138041, “Parallel artificial membrane permeability assay: a new membrane for the fast prediction of passive human skin permeability” (J Med Chem, 2006).

Species: Homo sapiens

O=C(O)c1ccccc1O [SALICYLIC ACID]
log Kp: -5.45 cm/s
